# Results: ChEMBL document CHEMBL4382260, “Synthesis and biological evaluation as antiangiogenic agents of ureas derived from 3'-aminocombretastatin A-4” (Eur J Med Chem, 2019)
# Legend:
# [1] = tested on: A549; assay: Cell cycle arrest in human A549 cells assessed as accumulation at G2/M phase at 54 uM after 24 hrs by propidium iodide staining based flow cytometry (reference value: 10 +/- 0.8%); format: functional
# [2] = tested on: A549; assay: Cell cycle arrest in human A549 cells assessed as accumulation at G0/G1 phase at 54 uM after 24 hrs by propidium iodide staining based flow cytometry (reference value: 60 +/- 1%); format: functional
smiles,measurement,setting,value
CNC(=O)c1cc(Oc2ccc(NC(=O)Nc3ccc(Cl)c(C(F)(F)F)c3)cc2)ccn1 [SORAFENIB],Activity,[1],19.4%
same,Activity,[2],46.8%
